Laboratory results published in PMC10104807, “Modulation of tau tubulin kinases (TTBK1 and TTBK2) impacts ciliogenesis” (Scientific Reports, 2023).
Values joined by “and” are separate entries in the source; they are usually repeats but may differ in a detail not shown here. Equal values may be shown once. Read-outs that look alike come from different tables or passages of the source.

The chains behind the UniProt entries cited, without tags or fusion partners.
UniProt Q86Z02, whole entry: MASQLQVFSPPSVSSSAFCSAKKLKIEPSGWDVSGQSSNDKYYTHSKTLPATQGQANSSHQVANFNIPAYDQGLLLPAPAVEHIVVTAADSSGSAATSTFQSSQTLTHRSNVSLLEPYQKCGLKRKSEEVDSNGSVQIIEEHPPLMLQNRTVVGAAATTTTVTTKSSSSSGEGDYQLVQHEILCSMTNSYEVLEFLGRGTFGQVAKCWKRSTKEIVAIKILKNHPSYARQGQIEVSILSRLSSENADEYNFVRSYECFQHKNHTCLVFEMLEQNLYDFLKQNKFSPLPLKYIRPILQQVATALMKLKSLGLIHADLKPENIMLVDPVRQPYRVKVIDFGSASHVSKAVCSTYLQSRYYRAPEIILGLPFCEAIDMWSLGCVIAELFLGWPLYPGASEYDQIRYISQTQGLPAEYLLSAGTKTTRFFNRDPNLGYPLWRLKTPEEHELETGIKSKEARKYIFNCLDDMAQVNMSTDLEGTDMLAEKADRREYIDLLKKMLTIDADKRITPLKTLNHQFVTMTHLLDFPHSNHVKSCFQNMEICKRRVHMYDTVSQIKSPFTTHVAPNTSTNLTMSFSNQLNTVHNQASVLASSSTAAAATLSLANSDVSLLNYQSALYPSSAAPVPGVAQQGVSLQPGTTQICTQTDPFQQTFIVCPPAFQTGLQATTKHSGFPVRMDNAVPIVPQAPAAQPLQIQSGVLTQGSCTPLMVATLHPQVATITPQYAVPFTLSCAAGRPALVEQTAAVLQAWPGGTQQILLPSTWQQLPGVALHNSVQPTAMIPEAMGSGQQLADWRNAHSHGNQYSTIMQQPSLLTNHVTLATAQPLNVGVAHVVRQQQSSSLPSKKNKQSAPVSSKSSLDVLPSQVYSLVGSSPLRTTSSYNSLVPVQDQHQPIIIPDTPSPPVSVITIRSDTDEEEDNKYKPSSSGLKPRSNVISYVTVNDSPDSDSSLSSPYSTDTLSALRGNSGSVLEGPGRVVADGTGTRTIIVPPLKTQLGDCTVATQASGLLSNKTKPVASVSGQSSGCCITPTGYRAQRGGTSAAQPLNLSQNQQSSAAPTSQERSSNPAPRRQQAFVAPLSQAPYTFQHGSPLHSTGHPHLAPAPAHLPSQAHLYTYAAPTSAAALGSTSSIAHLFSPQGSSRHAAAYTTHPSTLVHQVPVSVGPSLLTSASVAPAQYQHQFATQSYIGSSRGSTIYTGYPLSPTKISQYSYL
UniProt P27448, whole entry: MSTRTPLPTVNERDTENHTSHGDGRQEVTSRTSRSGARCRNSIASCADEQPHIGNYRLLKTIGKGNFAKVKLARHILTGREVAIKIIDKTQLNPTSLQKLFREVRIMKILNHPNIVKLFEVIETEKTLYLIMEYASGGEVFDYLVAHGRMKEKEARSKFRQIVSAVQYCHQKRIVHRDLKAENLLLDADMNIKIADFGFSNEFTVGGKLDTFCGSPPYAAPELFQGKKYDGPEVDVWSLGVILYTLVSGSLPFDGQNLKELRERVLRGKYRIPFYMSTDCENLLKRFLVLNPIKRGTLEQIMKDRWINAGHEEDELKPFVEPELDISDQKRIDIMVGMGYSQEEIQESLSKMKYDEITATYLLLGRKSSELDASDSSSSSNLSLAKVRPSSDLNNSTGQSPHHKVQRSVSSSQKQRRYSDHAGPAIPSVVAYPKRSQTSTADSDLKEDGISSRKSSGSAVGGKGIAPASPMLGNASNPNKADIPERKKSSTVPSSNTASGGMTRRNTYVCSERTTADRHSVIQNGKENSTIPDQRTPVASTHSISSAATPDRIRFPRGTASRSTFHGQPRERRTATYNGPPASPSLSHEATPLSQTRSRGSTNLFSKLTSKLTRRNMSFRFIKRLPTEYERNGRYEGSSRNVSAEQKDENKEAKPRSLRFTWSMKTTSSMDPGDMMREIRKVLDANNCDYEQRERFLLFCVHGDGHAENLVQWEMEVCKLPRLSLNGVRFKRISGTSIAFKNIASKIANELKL
UniProt Q96L34, whole entry: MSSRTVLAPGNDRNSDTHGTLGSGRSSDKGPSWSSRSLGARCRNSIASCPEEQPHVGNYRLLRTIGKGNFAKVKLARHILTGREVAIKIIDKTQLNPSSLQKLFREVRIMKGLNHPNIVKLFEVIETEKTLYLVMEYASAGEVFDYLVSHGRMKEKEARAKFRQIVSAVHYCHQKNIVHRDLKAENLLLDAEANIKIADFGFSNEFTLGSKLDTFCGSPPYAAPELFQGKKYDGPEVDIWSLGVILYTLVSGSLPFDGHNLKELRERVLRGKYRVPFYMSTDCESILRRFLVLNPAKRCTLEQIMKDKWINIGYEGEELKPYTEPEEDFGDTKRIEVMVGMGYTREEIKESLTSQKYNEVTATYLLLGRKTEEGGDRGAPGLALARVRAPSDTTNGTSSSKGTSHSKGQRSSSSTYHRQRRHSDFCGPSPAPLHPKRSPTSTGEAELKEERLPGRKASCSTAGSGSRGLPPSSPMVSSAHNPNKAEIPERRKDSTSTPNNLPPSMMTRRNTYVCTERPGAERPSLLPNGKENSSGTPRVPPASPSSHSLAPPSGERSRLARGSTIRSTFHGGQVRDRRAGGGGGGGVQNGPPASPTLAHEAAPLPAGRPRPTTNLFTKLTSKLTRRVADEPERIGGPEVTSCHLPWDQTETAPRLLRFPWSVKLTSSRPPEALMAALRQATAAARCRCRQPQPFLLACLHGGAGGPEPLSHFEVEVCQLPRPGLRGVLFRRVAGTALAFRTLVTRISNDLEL
UniProt O75914, whole entry: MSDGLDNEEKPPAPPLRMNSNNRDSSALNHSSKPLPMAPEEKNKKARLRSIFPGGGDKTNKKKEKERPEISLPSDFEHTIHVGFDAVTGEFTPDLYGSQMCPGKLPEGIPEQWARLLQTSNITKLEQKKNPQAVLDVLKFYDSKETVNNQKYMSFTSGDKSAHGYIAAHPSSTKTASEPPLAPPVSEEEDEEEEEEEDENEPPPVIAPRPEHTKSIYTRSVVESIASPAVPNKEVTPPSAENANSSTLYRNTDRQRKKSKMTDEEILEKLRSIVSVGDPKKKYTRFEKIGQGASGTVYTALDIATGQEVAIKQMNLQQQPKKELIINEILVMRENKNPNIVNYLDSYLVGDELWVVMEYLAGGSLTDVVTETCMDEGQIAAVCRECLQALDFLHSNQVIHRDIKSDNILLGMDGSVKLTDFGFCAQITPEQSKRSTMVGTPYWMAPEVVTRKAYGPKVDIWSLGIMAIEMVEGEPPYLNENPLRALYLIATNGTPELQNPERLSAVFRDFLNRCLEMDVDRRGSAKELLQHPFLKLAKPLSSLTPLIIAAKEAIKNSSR
UniProt Q9NQU5, whole entry: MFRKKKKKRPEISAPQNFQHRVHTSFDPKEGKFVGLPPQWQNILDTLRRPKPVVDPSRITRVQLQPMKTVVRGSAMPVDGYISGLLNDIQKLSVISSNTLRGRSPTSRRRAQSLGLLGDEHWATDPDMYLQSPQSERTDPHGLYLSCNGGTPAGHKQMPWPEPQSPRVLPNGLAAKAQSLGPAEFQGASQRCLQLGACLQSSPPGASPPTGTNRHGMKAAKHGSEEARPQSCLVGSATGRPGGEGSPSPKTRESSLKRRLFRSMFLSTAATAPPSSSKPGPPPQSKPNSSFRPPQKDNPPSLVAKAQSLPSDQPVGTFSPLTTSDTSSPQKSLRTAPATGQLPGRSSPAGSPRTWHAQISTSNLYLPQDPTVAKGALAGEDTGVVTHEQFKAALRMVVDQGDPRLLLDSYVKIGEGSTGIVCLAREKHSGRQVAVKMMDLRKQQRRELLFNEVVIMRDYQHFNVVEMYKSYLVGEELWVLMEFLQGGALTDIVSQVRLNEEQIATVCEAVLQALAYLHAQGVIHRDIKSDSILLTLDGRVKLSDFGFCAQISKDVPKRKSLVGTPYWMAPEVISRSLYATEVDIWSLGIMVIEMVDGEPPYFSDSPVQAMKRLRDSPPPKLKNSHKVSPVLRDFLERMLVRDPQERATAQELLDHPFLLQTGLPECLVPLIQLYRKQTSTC
UniProt Q7L7X3, whole entry: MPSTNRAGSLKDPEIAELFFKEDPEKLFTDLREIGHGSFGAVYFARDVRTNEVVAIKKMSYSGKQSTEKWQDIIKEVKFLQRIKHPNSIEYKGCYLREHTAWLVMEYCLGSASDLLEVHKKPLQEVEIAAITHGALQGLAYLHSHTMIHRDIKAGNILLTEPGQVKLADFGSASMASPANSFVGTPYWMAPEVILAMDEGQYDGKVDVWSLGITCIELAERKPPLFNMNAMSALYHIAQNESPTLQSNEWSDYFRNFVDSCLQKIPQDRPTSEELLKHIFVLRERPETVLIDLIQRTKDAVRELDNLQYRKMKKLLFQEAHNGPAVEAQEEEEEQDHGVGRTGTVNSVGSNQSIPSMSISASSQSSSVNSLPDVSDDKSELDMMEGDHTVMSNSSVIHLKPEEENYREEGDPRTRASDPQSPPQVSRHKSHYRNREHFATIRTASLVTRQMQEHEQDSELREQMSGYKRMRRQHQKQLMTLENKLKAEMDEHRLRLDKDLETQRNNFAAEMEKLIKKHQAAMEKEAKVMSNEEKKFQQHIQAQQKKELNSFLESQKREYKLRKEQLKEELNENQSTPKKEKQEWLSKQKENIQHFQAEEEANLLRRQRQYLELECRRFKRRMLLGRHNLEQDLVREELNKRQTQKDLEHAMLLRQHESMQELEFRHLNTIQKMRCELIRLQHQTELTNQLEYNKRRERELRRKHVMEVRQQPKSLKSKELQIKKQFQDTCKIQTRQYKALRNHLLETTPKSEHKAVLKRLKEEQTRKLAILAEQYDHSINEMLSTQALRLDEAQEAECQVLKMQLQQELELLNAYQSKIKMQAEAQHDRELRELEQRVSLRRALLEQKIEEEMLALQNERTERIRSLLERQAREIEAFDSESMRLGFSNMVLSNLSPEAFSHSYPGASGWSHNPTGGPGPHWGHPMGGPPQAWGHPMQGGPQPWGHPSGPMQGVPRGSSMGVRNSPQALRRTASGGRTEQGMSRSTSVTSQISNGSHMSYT
UniProt Q9UL54, whole entry: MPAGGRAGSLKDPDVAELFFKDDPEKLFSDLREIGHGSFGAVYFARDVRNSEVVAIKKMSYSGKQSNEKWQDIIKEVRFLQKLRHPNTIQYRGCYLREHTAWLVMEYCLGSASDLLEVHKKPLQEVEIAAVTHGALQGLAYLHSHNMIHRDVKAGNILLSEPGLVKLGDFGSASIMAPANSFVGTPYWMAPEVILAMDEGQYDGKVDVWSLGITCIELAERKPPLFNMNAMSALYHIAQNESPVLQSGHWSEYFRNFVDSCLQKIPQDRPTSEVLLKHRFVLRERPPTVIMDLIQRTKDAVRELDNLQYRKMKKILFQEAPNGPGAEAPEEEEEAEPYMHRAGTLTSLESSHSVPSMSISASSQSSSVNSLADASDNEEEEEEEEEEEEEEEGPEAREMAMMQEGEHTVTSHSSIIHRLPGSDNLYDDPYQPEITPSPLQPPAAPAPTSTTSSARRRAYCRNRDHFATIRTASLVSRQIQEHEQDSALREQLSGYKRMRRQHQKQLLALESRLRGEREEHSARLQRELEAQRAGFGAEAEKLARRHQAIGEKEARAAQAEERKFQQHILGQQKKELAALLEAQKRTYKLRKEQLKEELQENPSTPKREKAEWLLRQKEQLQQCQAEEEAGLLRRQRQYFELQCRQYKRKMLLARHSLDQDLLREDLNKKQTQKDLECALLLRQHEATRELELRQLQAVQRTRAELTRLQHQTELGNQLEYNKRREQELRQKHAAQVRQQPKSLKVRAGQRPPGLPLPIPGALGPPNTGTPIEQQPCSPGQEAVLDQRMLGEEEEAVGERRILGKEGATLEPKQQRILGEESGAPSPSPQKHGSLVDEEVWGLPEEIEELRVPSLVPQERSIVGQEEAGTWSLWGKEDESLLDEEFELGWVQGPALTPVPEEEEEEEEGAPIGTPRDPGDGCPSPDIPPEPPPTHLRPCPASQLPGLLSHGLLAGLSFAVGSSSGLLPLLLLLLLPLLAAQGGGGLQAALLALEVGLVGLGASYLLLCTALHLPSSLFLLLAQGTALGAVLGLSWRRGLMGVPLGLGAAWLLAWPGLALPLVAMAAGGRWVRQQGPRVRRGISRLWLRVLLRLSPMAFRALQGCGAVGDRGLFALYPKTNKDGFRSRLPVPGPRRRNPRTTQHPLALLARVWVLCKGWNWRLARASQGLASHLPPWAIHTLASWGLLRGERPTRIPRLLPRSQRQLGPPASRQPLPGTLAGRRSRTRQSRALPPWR
UniProt Q9BXA7, whole entry: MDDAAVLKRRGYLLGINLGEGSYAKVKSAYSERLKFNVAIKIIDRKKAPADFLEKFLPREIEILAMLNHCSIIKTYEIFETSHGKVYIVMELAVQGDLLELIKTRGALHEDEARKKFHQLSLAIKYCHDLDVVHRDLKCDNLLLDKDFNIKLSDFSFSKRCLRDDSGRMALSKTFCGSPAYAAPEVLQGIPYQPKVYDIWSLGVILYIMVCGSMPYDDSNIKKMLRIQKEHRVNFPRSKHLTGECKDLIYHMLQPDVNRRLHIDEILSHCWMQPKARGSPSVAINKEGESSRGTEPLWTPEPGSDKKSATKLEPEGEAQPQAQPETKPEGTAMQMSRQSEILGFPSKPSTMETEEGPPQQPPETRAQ

Legend:
HIPK1 = HIPK1 (Homo sapiens, UniProt Q86Z02); test: Eurofins enzymatic radiometric kinase assay; assay type: biochemical; conditions: ATP at Km, duplicate
MAP4K5 = MAP4K5 (Homo sapiens, UniProt Q9Y4K4); test: Eurofins enzymatic radiometric kinase assay; assay type: biochemical; conditions: ATP at Km, duplicate
MARK3 = MARK3 (Homo sapiens, UniProt P27448); test: Eurofins enzymatic radiometric kinase assay; assay type: biochemical; conditions: ATP at Km, duplicate
MARK4 = MARK4 (Homo sapiens, UniProt Q96L34); test: Eurofins enzymatic radiometric kinase assay; assay type: biochemical; conditions: ATP at Km, duplicate
PAK3 = PAK3 (Homo sapiens, UniProt O75914); test: Eurofins enzymatic radiometric kinase assay; assay type: biochemical; conditions: ATP at Km, duplicate
PAK4 = PAK4 (Homo sapiens, UniProt O96013); test: Eurofins enzymatic radiometric kinase assay; assay type: biochemical; conditions: ATP at Km, duplicate
PAK5 = PAK5 (Homo sapiens, UniProt Q9P286); test: Eurofins enzymatic radiometric kinase assay; assay type: biochemical; conditions: ATP at Km, duplicate
PAK6 = PAK6 (Homo sapiens, UniProt Q9NQU5); test: Eurofins enzymatic radiometric kinase assay; assay type: biochemical; conditions: ATP at Km, duplicate
TAOK1 = TAOK1 (Homo sapiens, UniProt Q7L7X3); test: Eurofins enzymatic radiometric kinase assay; assay type: biochemical; conditions: 1 μM, ATP at Km, duplicate
TAOK2 = TAOK2 (Homo sapiens, UniProt Q9UL54); test: Eurofins enzymatic radiometric kinase assay; assay type: biochemical; conditions: 1 μM, ATP at Km, duplicate
TAOK3 = TAOK3 (Homo sapiens, UniProt Q9H2K8); test: Eurofins enzymatic radiometric kinase assay; assay type: biochemical; conditions: ATP at Km, duplicate
TSSK1 = TSSK1 (Homo sapiens, UniProt Q9BXA7); test: Eurofins enzymatic radiometric kinase assay; assay type: biochemical; conditions: ATP at Km, duplicate
TSSK2 = TSSK2 (Homo sapiens, UniProt Q96PF2); test: Eurofins enzymatic radiometric kinase assay; assay type: biochemical; conditions: ATP at Km, duplicate
TSSK3 = TSSK3 (Homo sapiens, UniProt Q96PN8); test: Eurofins enzymatic radiometric kinase assay; assay type: biochemical; conditions: 1 μM, ATP at Km, duplicate
TSSK4 = TSSK4 (Homo sapiens, UniProt Q6SA08); test: Eurofins enzymatic radiometric kinase assay; assay type: biochemical; conditions: ATP at Km, duplicate
TTBK1 = TTBK1 (Homo sapiens, UniProt Q5TCY1); test: Eurofins enzymatic radiometric kinase assay; assay type: biochemical; conditions: 1 μM, ATP at Km, duplicate; lower = greater inhibition
TTBK2 = TTBK2 (Homo sapiens, UniProt Q6IQ55); test: Eurofins enzymatic radiometric kinase assay; assay type: biochemical; conditions: 1 μM, ATP at Km, duplicate; lower = greater inhibition
NLuc-TTBK1 = NLuc-TTBK1 (Homo sapiens, UniProt Q5TCY1); test: TTBK1 NanoBRET cellular target engagement assay in HEK293 cells; assay type: cell-based; conditions: 2 μM tracer 29
NLuc-TTBK2 = NLuc-TTBK2 (Homo sapiens, UniProt Q6IQ55); test: TTBK2 NanoBRET cellular target engagement assay in HEK293 cells; assay type: cell-based; conditions: 2 μM tracer 29
[1] = read-out: TTBK1 intact cell NB IC50, intact HEK293 cells
[2] = read-out: TTBK1 permeabilized cell NB IC50, permeabilized HEK293 cells (digitonin)
[3] = read-out: TTBK2 intact cell NB IC50, intact HEK293 cells
[4] = read-out: TTBK2 permeabilized cell NB IC50, permeabilized HEK293 cells (digitonin)

Row | SMILES | HIPK1 PoC at 1 μM (HIPK1) [PoC] | MAP4K5 PoC at 1 μM (MAP4K5) [PoC] | MARK3 PoC at 1 μM (MARK3) [PoC] | MARK4 PoC at 1 μM (MARK4) [PoC] | PAK3 PoC at 1 μM (PAK3) [PoC] | PAK4 PoC at 1 μM (PAK4) [PoC] | PAK5 PoC at 1 μM (PAK5) [PoC] | PAK6 PoC at 1 μM (PAK6) [PoC] | TAOK1 PoC at 1 μM (TAOK1) [PoC] | TAOK2 PoC at 1 μM (TAOK2) [PoC] | TAOK3 PoC at 1 μM (TAOK3) [PoC] | TSSK1 PoC at 1 μM (TSSK1) [PoC] | TSSK2 PoC at 1 μM (TSSK2) [PoC] | TSSK3 PoC at 1 μM (TSSK3) [PoC] | TSSK4 PoC at 1 μM (TSSK4) [PoC] | TTBK1 PoC (TTBK1) | TTBK2 PoC (TTBK2) | IC50 (NLuc-TTBK1; [1]) [µM] | IC50 (NLuc-TTBK1; [2]) [µM] | IC50 (NLuc-TTBK2; [3]) | other results
1 | CC(C)(O)CC#Cc1ccc2[nH]c3c(c2c1)-c1nc(N)ncc1CCC3 | 56 | 3 | 84 | 84 | 110 | 31 | 39 | 40 | 24 | 21 | 28 | 98 | 93 | 34 | 103 | 86 PoC and 86/NT PoC | 104 PoC and 104/NT PoC | > 30 | > 30 | > 30 µM | IC50 (NLuc-TTBK2; [4]): > 30 µM
2 | CC(O)C#Cc1ccc2[nH]c3c(c2c1)-c1nc(N)ncc1CCC3 (stereo not drawn) | 69 | -1 | 27 | 37 | 89 | 10 | 8 | 13 | 2 | 8 | 9 | 8 | 55 | 13 | 86 | 68 PoC and 68/NT PoC | 72 PoC and 72/NT PoC | > 30 | 7.2 | < 30 µM and 26 µM | IC50 (NLuc-TTBK2; [4]): 9.3 µM
3 | CC(C)(C#Cc1ccc2[nH]c3c(c2c1)-c1nc(N)ncc1CCC3)CO | 84 | 6 | 83 | 73 | 117 | 66 | 77 | 82 | 22 | 55 | 44 | 73 | 77 | 59 | 94 | 85 PoC and 85/NT PoC | 103 PoC and 103/NT PoC | > 30 | > 30 | > 30 µM | IC50 (NLuc-TTBK2; [4]): > 30 µM
4 | Nc1ncc2c(n1)-c1c([nH]c3ccc(C#CCCO)cc13)CCC2 | 30 | 1 | 31 | 37 | 89 | 22 | 26 | 36 | 1 | 9 | 11 | 57 | 91 | 36 | 103 | 91 PoC and 91/NT PoC | 76 PoC and 76/NT PoC | > 30 | 25 | > 30 µM | IC50 (NLuc-TTBK2; [4]): 19 µM
